According to ChEMBL document CHEMBL3885861, “Open TG-GATES”:

Tests used:
[1] = species on record: Rattus norvegicus; assay: Open TG-GATES - Regimen: Daily Repeat; format: toxicity, organism-based, Sprague-Dawley; set-up: regimen Daily Repeat, gender Male, age 6 weeks; conditions: in vivo; for LIVER: tissue Liver
[2] = species on record: Rattus norvegicus; assay: Open TG-GATES - Regimen: Single; format: toxicity, organism-based, Sprague-Dawley; set-up: regimen Single, gender Male, age 6 weeks; conditions: in vivo; for MCH / Plat / Hb / MCHC: tissue Blood
[3] = po, 30 mg/kg, […], tissue Blood, route gavage, dose level Middle, time 7 day
[4] = po, 30 mg/kg, […], tissue Blood, route gavage, dose level Middle, time 28 day
[5] = po, 0 mg/kg, 3 h, route gavage, dose level Control
[6] = po, 100 mg/kg, 3 h, tissue Plasma, route gavage, dose level High
[7] = iv, 10 mg/kg, […], tissue Plasma, route intravenous injection, dose level High, time 7 day
[8] = iv, 0 mg/kg, 6 h, route intravenous injection, dose level Control
[9] = iv, 30 mg/kg, 3 h, route intravenous injection, dose level Middle
[10] = iv, 30 mg/kg, 6 h, tissue Plasma, route intravenous injection, dose level Middle

CS(=O)(=O)Nc1ccc([N+](=O)[O-])cc1Oc1ccccc1 [NIMESULIDE]
MCH ([1]; po, 0 mg/kg, […], tissue Blood, route gavage, dose level Control, time 7 day): 22.1 pg | MCH ([1]; po, 0 mg/kg, […], tissue Blood, route gavage, dose level Control, time 28 day): 19.9 pg | MCH ([1]; po, 10 mg/kg, 72 h, tissue Blood, route gavage, dose level Low, time 3 day): 21.5 pg | MCH ([1]; po, 10 mg/kg, […], tissue Blood, route gavage, dose level Low, time 7 day): 21.1 pg | MCH ([1]; po, 10 mg/kg, […], tissue Blood, route gavage, dose level Low, time 14 day): 21.5 pg | MCH ([1]; po, 10 mg/kg, […], tissue Blood, route gavage, dose level Low, time 28 day): 19.5 pg | MCH ([1]; po, 30 mg/kg, 72 h, tissue Blood, route gavage, dose level Middle, time 3 day): 21.5 pg | MCH [1, 3]: 21.4 pg | MCH ([1]; po, 30 mg/kg, […], tissue Blood, route gavage, dose level Middle, time 14 day): 21.2 pg | MCH [1, 4]: 19.8 pg | MCH ([1]; po, 100 mg/kg, 72 h, tissue Blood, route gavage, dose level High, time 3 day): 21.8 pg | MCH ([1]; po, 100 mg/kg, […], tissue Blood, route gavage, dose level High, time 7 day): 21.2 pg | MCH ([1]; po, 100 mg/kg, […], tissue Blood, route gavage, dose level High, time 14 day): 22.6 pg | MCH ([1]; po, 100 mg/kg, […], tissue Blood, route gavage, dose level High, time 28 day): 20 pg | MCH [2, 5]: 22 pg | MCH ([2]; po, 0 mg/kg, 6 h, route gavage, dose level Control): 22 pg | MCH ([2]; po, 0 mg/kg, 9 h, route gavage, dose level Control): 21.8 pg | MCH ([2]; po, 0 mg/kg, 24 h, route gavage, dose level Control): 22.2 pg | MCH ([2]; po, 30 mg/kg, 6 h, route gavage, dose level Low): 22.2 pg | MCH ([2]; po, 30 mg/kg, 9 h, route gavage, dose level Low): 22.2 pg | MCH ([2]; po, 100 mg/kg, 3 h, route gavage, dose level Middle): 22.6 pg | MCH ([2]; po, 100 mg/kg, 6 h, route gavage, dose level Middle): 22 pg | MCH ([2]; po, 100 mg/kg, 9 h, route gavage, dose level Middle): 21.9 pg | MCH ([2]; po, 100 mg/kg, 24 h, route gavage, dose level Middle): 21.6 pg | MCH ([2]; po, 300 mg/kg, 3 h, route gavage, dose level High): 22.3 pg | MCH ([2]; po, 300 mg/kg, 6 h, route gavage, dose level High): 21.4 pg | MCH ([2]; po, 300 mg/kg, 9 h, route gavage, dose level High): 21.9 pg | MCH ([2]; po, 300 mg/kg, 24 h, route gavage, dose level High): 21.4 pg

CSc1ccc2c(c1)N(CCC1CCCCN1C)c1ccccc1S2 (configuration not stated) [THIORIDAZINE]
Cl ([1]; po, 0 mg/kg, 72 h, tissue Plasma, route gavage, dose level Control, time 3 day): 104.2 meq/L | Cl ([1]; po, 0 mg/kg, […], tissue Plasma, route gavage, dose level Control, time 7 day): 106.2 meq/L | Cl ([1]; po, 0 mg/kg, […], tissue Plasma, route gavage, dose level Control, time 14 day): 106.4 meq/L | Cl ([1]; po, 0 mg/kg, […], tissue Plasma, route gavage, dose level Control, time 28 day): 106.2 meq/L | Cl ([1]; po, 10 mg/kg, 72 h, tissue Plasma, route gavage, dose level Low, time 3 day): 104 meq/L | Cl ([1]; po, 10 mg/kg, […], tissue Plasma, route gavage, dose level Low, time 7 day): 105.8 meq/L | Cl ([1]; po, 10 mg/kg, […], tissue Plasma, route gavage, dose level Low, time 14 day): 106.8 meq/L | Cl ([1]; po, 10 mg/kg, […], tissue Plasma, route gavage, dose level Low, time 28 day): 106.4 meq/L | Cl ([1]; po, 30 mg/kg, 72 h, tissue Plasma, route gavage, dose level Middle, time 3 day): 103.2 meq/L | Plat [1, 3]: 104 x10_4/uL | Neu [1, 4]: 10.4% | Cl ([1]; po, 30 mg/kg, […], tissue Plasma, route gavage, dose level Middle, time 7 day): 105.6 meq/L | Cl ([1]; po, 30 mg/kg, […], tissue Plasma, route gavage, dose level Middle, time 14 day): 107.6 meq/L | Cl ([1]; po, 30 mg/kg, […], tissue Plasma, route gavage, dose level Middle, time 28 day): 105.8 meq/L | Cl ([1]; po, 100 mg/kg, 72 h, tissue Plasma, route gavage, dose level High, time 3 day): 103.2 meq/L | Cl ([1]; po, 100 mg/kg, […], tissue Plasma, route gavage, dose level High, time 7 day): 105.8 meq/L | Cl ([1]; po, 100 mg/kg, […], tissue Plasma, route gavage, dose level High, time 14 day): 107.6 meq/L | Cl ([1]; po, 100 mg/kg, […], tissue Plasma, route gavage, dose level High, time 28 day): 106 meq/L | Plat [2, 5]: 104.6 x10_4/uL | Cl ([2]; po, 0 mg/kg, 3 h, tissue Plasma, route gavage, dose level Control): 104.4 meq/L | Cl ([2]; po, 0 mg/kg, 6 h, tissue Plasma, route gavage, dose level Control): 104.2 meq/L | Cl ([2]; po, 0 mg/kg, 9 h, tissue Plasma, route gavage, dose level Control): 105.4 meq/L | Cl ([2]; po, 0 mg/kg, 24 h, tissue Plasma, route gavage, dose level Control): 105.2 meq/L | LIVER ([2]; po, 10 mg/kg, 6 h, tissue Liver, route gavage, dose level Low): 10.4 g | Cl ([2]; po, 10 mg/kg, 6 h, tissue Plasma, route gavage, dose level Low): 106.2 meq/L | Cl ([2]; po, 10 mg/kg, 9 h, tissue Plasma, route gavage, dose level Low): 105.4 meq/L | Plat ([2]; po, 10 mg/kg, 24 h, route gavage, dose level Low): 103 x10_4/uL | Cl ([2]; po, 10 mg/kg, 24 h, tissue Plasma, route gavage, dose level Low): 104.6 meq/L | Cl ([2]; po, 30 mg/kg, 3 h, tissue Plasma, route gavage, dose level Middle): 105.2 meq/L | Plat ([2]; po, 30 mg/kg, 6 h, route gavage, dose level Middle): 103.6 x10_4/uL | Cl ([2]; po, 30 mg/kg, 6 h, tissue Plasma, route gavage, dose level Middle): 107 meq/L | Cl ([2]; po, 30 mg/kg, 9 h, tissue Plasma, route gavage, dose level Middle): 106.8 meq/L | Cl ([2]; po, 30 mg/kg, 24 h, tissue Plasma, route gavage, dose level Middle): 104.4 meq/L | Plat ([2]; po, 100 mg/kg, 3 h, route gavage, dose level High): 103.1 x10_4/uL | Cl [2, 6]: 107 meq/L | IP [2, 6]: 10.4 mg/dL | Cl ([2]; po, 100 mg/kg, 6 h, tissue Plasma, route gavage, dose level High): 108.4 meq/L | Cl ([2]; po, 100 mg/kg, 9 h, tissue Plasma, route gavage, dose level High): 107.2 meq/L | Cl ([2]; po, 100 mg/kg, 24 h, tissue Plasma, route gavage, dose level High): 104.4 meq/L

CARBOPLATIN
MCH ([1]; iv, 0 mg/kg, 72 h, tissue Blood, route intravenous injection, dose level Control, time 3 day): 20.5 pg | MCHC ([1]; iv, 0 mg/kg, […], tissue Blood, route intravenous injection, dose level Control, time 28 day): 35.2% | Ca ([1]; iv, 0 mg/kg, […], tissue Plasma, route intravenous injection, dose level Control, time 7 day): 10.8 mg/dL | Ca ([1]; iv, 0 mg/kg, […], tissue Plasma, route intravenous injection, dose level Control, time 14 day): 10.8 mg/dL | GLC ([1]; iv, 0 mg/kg, […], tissue Plasma, route intravenous injection, dose level Control, time 28 day): 187.8 mg/dL | Hb ([1]; iv, 1 mg/kg, […], tissue Blood, route intravenous injection, dose level Low, time 7 day): 13.2 g/dL | LIVER ([1]; iv, 1 mg/kg, […], route intravenous injection, dose level Low, time 14 day): 12.4 g | Ca ([1]; iv, 1 mg/kg, […], tissue Plasma, route intravenous injection, dose level Low, time 14 day): 10.8 mg/dL | Ca ([1]; iv, 3 mg/kg, 72 h, tissue Plasma, route intravenous injection, dose level Middle, time 3 day): 10.8 mg/dL | Neu ([1]; iv, 3 mg/kg, […], tissue Blood, route intravenous injection, dose level Middle, time 28 day): 12.4% | MCH ([1]; iv, 10 mg/kg, 72 h, tissue Blood, route intravenous injection, dose level High, time 3 day): 20.5 pg | LDH ([1]; iv, 10 mg/kg, 72 h, tissue Plasma, route intravenous injection, dose level High, time 3 day): 192.2 IU/L | LIVER ([1]; iv, 10 mg/kg, […], route intravenous injection, dose level High, time 28 day): 11.1 g | Ca [1, 7]: 10.8 mg/dL | LDH [1, 7]: 192 IU/L | Ca ([1]; iv, 10 mg/kg, […], tissue Plasma, route intravenous injection, dose level High, time 14 day): 10.8 mg/dL | Hb [2, 8]: 13.3 g/dL | MCHC [2, 8]: 32.3% | MCH ([2]; iv, 0 mg/kg, 9 h, route intravenous injection, dose level Control): 20.5 pg | Hb ([2]; iv, 10 mg/kg, 6 h, route intravenous injection, dose level Low): 13.3 g/dL | MCH ([2]; iv, 10 mg/kg, 24 h, route intravenous injection, dose level Low): 20.5 pg | MCH [2, 9]: 20.5 pg | MCHC [2, 9]: 32.3% | MCH ([2]; iv, 30 mg/kg, 6 h, route intravenous injection, dose level Middle): 20.5 pg | BUN [2, 10]: 10.2 mg/dL | LDH [2, 10]: 183.6 IU/L | Hb ([2]; iv, 100 mg/kg, 3 h, route intravenous injection, dose level High): 13.2 g/dL | Hb ([2]; iv, 100 mg/kg, 6 h, route intravenous injection, dose level High): 13.3 g/dL | Ca ([2]; iv, 100 mg/kg, 9 h, tissue Plasma, route intravenous injection, dose level High): 10.8 mg/dL | Ca ([2]; iv, 100 mg/kg, 24 h, tissue Plasma, route intravenous injection, dose level High): 10.8 mg/dL
